Experimental data published in ChEMBL document CHEMBL2311518 (J Med Chem, 2013).

Chains of the proteins cited; added tags and fusions are not shown. Residues count along the entry.
UniProt P58154, 20-229 limits assumed: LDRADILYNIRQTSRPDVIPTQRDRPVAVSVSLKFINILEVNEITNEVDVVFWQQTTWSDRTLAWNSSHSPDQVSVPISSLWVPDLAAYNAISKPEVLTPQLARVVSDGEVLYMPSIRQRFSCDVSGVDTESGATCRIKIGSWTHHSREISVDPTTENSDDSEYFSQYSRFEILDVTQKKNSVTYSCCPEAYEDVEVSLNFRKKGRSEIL

Target: Acetylcholine-binding protein (Lymnaea stagnalis, UniProt P58154)
Conditions: hek293

## CN1CCC[C@H]1c1cccnc1 [NICOTINE]
  Ki: 83 nM
  pKi: 7.08
